Consider one compound from publication PMC8059561, “Lowered sensitivity of bitter taste receptors to β-glucosides in bamboo lemurs: an instance of parallel and adaptive functional decline in TAS2R16?” (Proceedings of the Royal Society B: Biological Sciences, 2021).

This test concerns TAS2R16 H. griseus S251L. Description: Calcium assay, single-point mutant H. griseus S251L TAS2R16. The following applies: HEK293T, Gα16/gust44, Calcium 4.

For orientation: EC50 means the concentration needed to bring the measured effect to its halfway point. On to `OCc1ccccc1O[C@@H]1O[C@H](CO)[C@@H](O)[C@H](O)[C@H]1O` [salicin], for which the EC50 was > 2500 µM.
